Among the data in PubChem BioAssay AID720537 (National Center for Advancing Translational Sciences (NCATS), 2013) are activity, negative = inhibition values, retold here.

This is a selection; strong and weak results do not stand in their true shares. Records with an inconclusive call do not appear. The source made the active and inactive calls. Calls follow the shape of the dose curve; as a rule, active = well fitted inhibition curve with a large enough effect; inconclusive = small, poorly fitted or top-dose-only effect; inactive = no such curve, though single readings can be large or run the other way.

The assay can be described thus: qHTS for Inhibitors of TGF-b: Hit Validation in HepG2 Cells using COP promoter.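 Also: 0% = TGF-beta stimulated DMSO wells and -100% = unstimulated cell wells; nearly all actives have a fitted effect of over 70% in size.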 Conditions: HepG2 COP-GFP TGF-b reporter, GFP fluorescence, 18 h, cells stimulated by added recombinant TGF-beta; at 46.1 µM (top of the series). An excerpt: TGF-b is a main component in the TGF-b signaling pathway which plays diverse roles in cellular and development pathways. TGF-b is the mediated by the transcription factors Smads. Although the Smad-dependent pathway is the primary canonical TGF-b signaling node, TGF-b1 can also activate alternative signaling pathways, including those involving MAPK (ERK, JNK and p38). This interaction may mediate or enhance Smad-dependent responses, or can exert Smad-independent effects. The complexity of this signaling cascade allows the TGF-b superfamily to perform unique, overlapping or redundant functions. […] We aim to identify Smad3-small molecule antagonists using a quantitative high throughput screening (qHTS) approach. […]
Suspensions of trypsinized HEPG2 COP-GFP cells were dispensed into white, tissue culture-treated, solid 1536-well plates at 5uL/well (1000 cells/well final concentration) in DMEM medium supplemented with 1% FBS. […] The plates were measured on an Acumen eX3 Explorer plate reader for GFP fluorescence (ex488/em500-530). GFP values were calculated by determining the mean GFP fluorescence of individual cells, and compiling these values for each well to determine a total well GFP signal. The %Activity was determined from the corrected fluorescence values. […] Concentration-response curves were fitted to the signals arising from the resulting fluorescence. […]
Consider `O=c1c2cc([N+](=O)[O-])ccc2[nH]c2c([N+](=O)[O-])cc([N+](=O)[O-])cc12`, for which the activity, negative = inhibition is inactive: -66%.
